Test results taken from patent publication US9994691B2, “Antimicrobial cleansing composition” (Conopco, Inc., d/b/a UNILEVER, priority 2014, dated 2018).

Description: Disclosed antimicrobial cleansing composition includes 0.1 to 100 ppm silver (I) compound.

Row | Substance | Silver Ion Solubility [Ag+] [µM]
1 | Silver oxide | 140
2 | Silver salicylate | 3900
